Data reported in paper PMC4860824, “Targeting the γ-/β-secretase interaction reduces β-amyloid generation and ameliorates Alzheimer’s disease-related pathogenesis” (Cell Discovery, 2015).

Assays:
CFP-PS1 (human), P49768 = test: FRET or BRET; acceptor photobleaching FRET between CFP and YFP fusions in fixed, transfected HEK293 cells, in the presence of the other γ-secretase components; n=20 cells per group; also after 16 h with 3 μM chemicals (3AA, XYT472B, secretase inhibitors); conditions: remark: other sources report otherwise
YFP-PS1 (human), P49768 = test: as above; conditions: remark: other sources report otherwise

B1: BACE1-YFP, P56817 46-501 (natural protein)
chain: ETDEEPEEPGRRGSFVEMVDNLRGKSGQGYYVEMTVGSPPQTLNILVDTGSSNFAVGAAPHPFLHRYYQRQLSSTYRDLRKGVYVPYTQGKWEGELGTDLVSIPHGPNVTVRANIAAITESDKFFINGSNWEGILGLAYAEIARPDDSLEPFFDSLVKQTHVPNLFSLQLCGAGFPLNQSEVLASVGGSMIIGGIDHSLYTGSLWYTPIRREWYYEVIIVRVEINGQDLKMDCKEYNYDKSIVDSGTTNLRLPKKVFEAAVKSIKAASSTEKFPDGFWLGEQLVCWQAGTTPWNIFPVISLYLMGEVTNQSFRITILPQQYLRPVEDVATSQDDCYKFAISQSSTGTVMGAVIMEGFYVVFDRARKRIGFAVSACHVHDEFRTAAVEGPFVTLDMEDCGYNIPQTDESTLMTIAYVMAAICALFMLPLCLMVCQWRCLRCLRQQHDDFADDISLLK
B1 gave an FRET efficiency (CFP-PS1 (human), P49768) of 0.1.

B2: BACE1-CFP, P56817 46-501 (natural protein)
chain: B1 chain
Binder B2 has an FRET efficiency (YFP-PS1 (human), P49768) of 0.1.
